Legend:
Human GLP-1R = Human GLP-1R (Homo sapiens, UniProt P43220); experiment: cAMP (HTRF) activity in HEK-293 cells stably overexpressing human GLP-1 receptor; format: cell-based; set-up: expressed in transfected cells; host or cells: HEK-293; conditions: for Human GLP-1R Rel. A (Relative Activity): EC50 of human GLP-1 (7-37) / EC50 of compound
Procedure, shortened: (§1)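 Agonism was assessed from intracellular cAMP by HTRF. Cells resuspended in HBSS were treated with compound for 60 minutes at room temperature, then with detection reagent for a further 60 minutes. EC50 (nM) values came from concentration–response curves.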

Amino acid sequences for entries named in this document (tags omitted). Residues count along the entry.
UniProt P43220, 24-463: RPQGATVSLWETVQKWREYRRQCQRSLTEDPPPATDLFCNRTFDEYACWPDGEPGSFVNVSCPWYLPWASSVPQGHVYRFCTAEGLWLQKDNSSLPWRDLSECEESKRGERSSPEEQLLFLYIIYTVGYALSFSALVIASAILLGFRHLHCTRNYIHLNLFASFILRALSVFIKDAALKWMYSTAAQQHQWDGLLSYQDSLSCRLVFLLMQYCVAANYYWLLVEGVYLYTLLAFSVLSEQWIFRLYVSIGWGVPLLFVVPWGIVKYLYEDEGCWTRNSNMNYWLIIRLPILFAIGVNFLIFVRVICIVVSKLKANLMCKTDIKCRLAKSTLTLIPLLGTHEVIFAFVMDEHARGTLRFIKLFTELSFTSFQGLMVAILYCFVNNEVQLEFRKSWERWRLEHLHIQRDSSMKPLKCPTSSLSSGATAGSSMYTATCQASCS
UniProt P47871, 26-477: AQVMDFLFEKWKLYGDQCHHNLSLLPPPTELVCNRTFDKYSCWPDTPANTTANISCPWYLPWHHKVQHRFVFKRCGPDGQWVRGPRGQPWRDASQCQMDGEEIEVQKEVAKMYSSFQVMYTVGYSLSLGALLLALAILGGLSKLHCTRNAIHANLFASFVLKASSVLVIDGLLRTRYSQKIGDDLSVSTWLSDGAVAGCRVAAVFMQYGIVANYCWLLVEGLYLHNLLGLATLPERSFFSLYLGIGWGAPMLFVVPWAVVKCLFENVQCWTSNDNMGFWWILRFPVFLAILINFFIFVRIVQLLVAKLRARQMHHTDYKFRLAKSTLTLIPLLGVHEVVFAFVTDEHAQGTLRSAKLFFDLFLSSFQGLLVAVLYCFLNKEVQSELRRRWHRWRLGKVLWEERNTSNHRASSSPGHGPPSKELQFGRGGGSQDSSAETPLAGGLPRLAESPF

RIN-m5F cells = format: cell-based, rat; conditions: for EC50: cAMP, at least 3 independent tests, read-out: EC50 on RIN-m5F rat pancreatic islet tumor cells; for Rel. A (Relative Activity) on RIN-m5F: relative to GLP-1(7-37)
Description: This experiment measured the cAMP level produced by the compound on RIN-mF cells.
Frozen […] cells were placed in a 37° C. constant temperature water bath for rapid thawing and recovery. The cell solution was transferred to 10 ml of HBSS for resuspension, and centrifuged at 1000 rpm for 5 minutes at room temperature.
(§2) 10 μL cell suspension was added to each well in the 384 well plate. […] Using the ECHO liquid transfer system, 100 nL of the prepared compound solution was added to the corresponding cell suspensions in the 384 well plate, rotated and shaken at 1000 rpm for 1 minute to mix evenly, and then incubated at room temperature for 60 minutes. 10 μL of detection reagent was added to each wells after drug incubation was completed, and incubation was performed for 60 minutes.

3T3-L1 adipocytes = conditions: for EC50: read-out: EC50 on mouse 3T3-L1 adipocyte, cAMP, at least 3 independent tests; for Rel. A (Relative Activity) on 3T3-L1 adipocyte: relative to GIP
Description: Mouse 3T3-L1 precursor adipocytes can be induced to differentiate into mature adipocytes. […] After the cells became full and contacted with each other, DMEM differentiation medium containing 20% FBS, 0.5 mM IBMX, 0.4 ug/mL dexamethasone, and 5 ug/mL insulin was used to induce differentiation of 3T3-L1 adipocyte. After 5 days of induction and cultivation, DMEM medium containing […], 4 ug/ml insulin, and 10 uM rosiglitazone was used to continue induction and cultivation for 3 days. Then, DMEM medium containing 10% FBS was used to continue cultivation for 2-3 days to induce mature 3T3-L1 adipocytes.
The cAMP level produced by the compound on 3T3-L1 adipocytes was determined in this experiment. The tested compound solution was diluted step by step according to a concentration gradient of 3 times, to obtain a total of 10 series of concentration solutions. The solutions were added to induced mature 3T3-L1 adipocytes and incubated at room temperature for 60 minutes. 10 μL detection reagent in the kit was added to each well after drug incubation, and incubated at room temperature for another 60 minutes. […] GraphPad Prism 5 plotting software was used to create compound concentration-effect curves and calculation was performed.

[1] = system: human primary liver cells; format: cell-based; conditions: for EC50: cAMP, at least 3 independent tests, read-out: EC50 on human primary liver cells; for Rel. A (Relative Activity) on human primary liver cells: relative to GCG
Description: The cAMP levels produced by compounds on human primary liver cells were determined in this experiment. Human primary liver cells were purchased from Lonza (cell product number HUCPG).
Frozen human primary liver cells were placed in a 37° C. constant temperature water bath for rapid thawing and recovery. The cell solution was transferred to 10 ml of HBSS for resuspension, and centrifuged at 1000 rpm for 5 minutes at room temperature.
as §2, with “well” for “wells”

Human GIP R = biological target: T1, Human GIP R (Homo sapiens, UniProt P48546); experiment: cAMP (HTRF) activity in CHO cells stably overexpressing GIP receptor; format: cell-based; conditions: for Human GIP R Rel. A (Relative Activity): EC50 of human GIP / EC50 of compound
T1 construct: expressed in transfected cells; host or cells: CHO
T1 sequence (P48546 22-466): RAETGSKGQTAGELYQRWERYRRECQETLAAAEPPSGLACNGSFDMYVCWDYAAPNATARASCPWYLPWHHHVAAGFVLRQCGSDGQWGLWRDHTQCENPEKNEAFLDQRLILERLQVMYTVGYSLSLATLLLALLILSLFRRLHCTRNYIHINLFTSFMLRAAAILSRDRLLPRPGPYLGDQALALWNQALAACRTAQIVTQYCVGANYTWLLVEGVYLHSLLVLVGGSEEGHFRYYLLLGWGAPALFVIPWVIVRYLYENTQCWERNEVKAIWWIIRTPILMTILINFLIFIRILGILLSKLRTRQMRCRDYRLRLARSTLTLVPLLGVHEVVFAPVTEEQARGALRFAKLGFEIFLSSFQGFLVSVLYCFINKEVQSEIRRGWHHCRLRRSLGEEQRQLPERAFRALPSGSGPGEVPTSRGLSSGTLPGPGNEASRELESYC
Procedure, shortened: as §1

Human GCG R = biological target: T2, Human GCG R (Homo sapiens, UniProt P47871); experiment: cAMP (HTRF) activity in HEK-293 cells stably overexpressing human GCG receptor; format: cell-based; conditions: for Human GCG R Rel. A (Relative Activity): EC50 of human GCG / EC50 of compound
T2 construct: expressed in transfected cells; host or cells: HEK-293
Procedure, shortened: as §1

SMILES	EC50 (Human GLP-1R) [nM]	Human GLP-1R Rel. A (Relative Activity) (Human GLP-1R) [%]	EC50 (RIN-m5F cells) [nM]	Rel. A (Relative Activity) on RIN-m5F (RIN-m5F cells) [%]	EC50 (3T3-L1 adipocytes) [nM]	Rel. A (Relative Activity) on 3T3-L1 adipocyte (3T3-L1 adipocytes) [%]	EC50 [1] [nM]	Rel. A (Relative Activity) on human primary liver cells [1] [%]	EC50 (Human GIP R) [nM]	Human GIP R Rel. A (Relative Activity) (Human GIP R) [%]	EC50 (Human GCG R) [nM]	Human GCG R Rel. A (Relative Activity) (Human GCG R) [%]
CC[C@H](C)[C@H](NC(=O)[C@H](Cc1ccccc1)NC(=O)[C@H](C)NC(=O)C(C)(C)NC(=O)[C@H](CCC(N)=O)NC(=O)[C@H](C)NC(=O)[C@H](CCCCNC(=O)COCCOCCNC(=O)COCCOCCNC(=O)CC[C@H](NC(=O)CCCCCCCCCCCCCCCCCCC(=O)O)C(=O)O)NC(=O)[C@H](CCCCN)NC(=O)[C@H](CC(=O)O)NC(=O)[C@H](CC(C)C)NC(=O)[C@](C)(CC(C)C)NC(=O)[C@@H](NC(=O)[C@H](CO)NC(=O)[C@H](Cc1ccc(O)cc1)NC(=O)[C@H](CC(=O)O)NC(=O)[C@H](CO)NC(=O)[C@@H](NC(=O)[C@](C)(Cc1ccccc1)NC(=O)[C@@H](NC(=O)CNC(=O)[C@H](CCC(N)=O)NC(=O)C(C)(C)NC(=O)[C@@H](N)Cc1ccc(O)cc1)[C@@H](C)O)[C@@H](C)O)[C@@H](C)CC)C(=O)N[C@@H](CCC(=O)O)C(=O)N[C@@H](Cc1ccc(O)cc1)C(=O)N[C@@H](CC(C)C)C(=O)N[C@@H](CC(C)C)C(=O)N[C@@H](CCC(=O)O)C(=O)N[C@H](C(=O)NCC(=O)N1CCC[C@H]1C(=O)N[C@@H](CO)C(=O)N[C@@H](CO)C(=O)NCC(=O)NC(C)(C)C(=O)N1CCC[C@H]1C(=O)N1CCC[C@H]1C(=O)N1CCC[C@H]1C(=O)N[C@@H](CO)C(N)=O)[C@@H](C)O [Compound 7]	0.01	440.00	1.34	76.79	4.3	88.44	1.95	199.64	0.013	1392.31	0.058	98.28
CC[C@H](C)[C@H](NC(=O)[C@H](Cc1ccccc1)NC(=O)[C@H](C)NC(=O)C(C)(C)NC(=O)[C@H](CCC(N)=O)NC(=O)[C@H](C)NC(=O)[C@H](CCCCNC(=O)COCCOCCNC(=O)COCCOCCNC(=O)CC[C@H](NC(=O)CCCCCCCCCCCCCCCCCCC(=O)O)C(=O)O)NC(=O)[C@H](CCCCN)NC(=O)[C@H](CC(=O)O)NC(=O)[C@H](CC(C)C)NC(=O)[C@](C)(CC(C)C)NC(=O)[C@@H](NC(=O)[C@H](CO)NC(=O)[C@H](Cc1ccc(O)cc1)NC(=O)[C@H](CC(=O)O)NC(=O)[C@H](CO)NC(=O)[C@@H](NC(=O)[C@](C)(Cc1ccccc1)NC(=O)[C@@H](NC(=O)CNC(=O)[C@H](CCC(N)=O)NC(=O)C(C)(C)NC(=O)[C@@H](N)Cc1ccc(O)cc1)[C@@H](C)O)[C@@H](C)O)[C@@H](C)CC)C(=O)N[C@@H](CCC(=O)O)C(=O)N[C@@H](Cc1ccc(O)cc1)C(=O)N[C@@H](CC(C)C)C(=O)N[C@@H](CC(C)C)C(=O)N[C@@H](CCC(=O)O)C(=O)N[C@H](C(=O)NCC(=O)N1CCC[C@H]1C(=O)N[C@@H](CO)C(=O)N[C@@H](CO)C(=O)NCC(=O)N[C@@H](CCC(N)=O)C(=O)N1CCC[C@H]1C(=O)N1CCC[C@H]1C(=O)N1CCC[C@H]1C(=O)N[C@@H](CO)C(N)=O)[C@@H](C)O [Compound 8]	–	151.72	0.771	133.85	3.66	103.88	0.995	391.06	–	1508.33	0.071	80.28
CC[C@H](C)[C@H](NC(=O)[C@H](Cc1ccccc1)NC(=O)[C@H](C)NC(=O)C(C)(C)NC(=O)[C@H](CCC(N)=O)NC(=O)[C@H](C)NC(=O)[C@H](CCCCNC(=O)COCCOCCNC(=O)COCCOCCNC(=O)CC[C@H](NC(=O)CCCCCCCCCCCCCCCCCCC(=O)O)C(=O)O)NC(=O)[C@H](CCCCN)NC(=O)[C@H](CC(=O)O)NC(=O)[C@H](CC(C)C)NC(=O)[C@H](Cc1ccccc1)NC(=O)[C@@H](NC(=O)[C@H](CO)NC(=O)[C@H](Cc1ccc(O)cc1)NC(=O)[C@H](CC(=O)O)NC(=O)[C@H](CO)NC(=O)[C@@H](NC(=O)[C@](C)(Cc1ccccc1)NC(=O)[C@@H](NC(=O)CNC(=O)[C@H](CCC(N)=O)NC(=O)C(C)(C)NC(=O)[C@@H](N)Cc1ccc(O)cc1)[C@@H](C)O)[C@@H](C)O)[C@@H](C)CC)C(=O)N[C@@H](CCC(=O)O)C(=O)N[C@@H](Cc1ccc(O)cc1)C(=O)N[C@@H](CC(C)C)C(=O)N[C@@H](CC(C)C)C(=O)N[C@@H](CCC(=O)O)C(=O)N[C@H](C(=O)NCC(=O)N1CCC[C@H]1C(=O)N[C@@H](CO)C(=O)N[C@@H](CO)C(=O)NCC(=O)N[C@@H](C)C(=O)N1CCC[C@H]1C(=O)N1CCC[C@H]1C(=O)N1CCC[C@H]1C(=O)N[C@@H](CO)C(N)=O)[C@@H](C)O [Compound 13]	0.012	366.67	0.164	629.27	10.9	34.84	4.5	86.45	–	565.63	–	109.62
CC[C@H](C)[C@H](NC(=O)[C@H](Cc1ccccc1)NC(=O)[C@H](C)NC(=O)C(C)(C)NC(=O)[C@H](CCC(N)=O)NC(=O)[C@H](C)NC(=O)[C@H](CCCCNC(=O)COCCOCCNC(=O)COCCOCCNC(=O)CC[C@H](NC(=O)CCCCCCCCCCCCCCCCCCC(=O)O)C(=O)O)NC(=O)[C@H](CCCCN)NC(=O)[C@H](CC(=O)O)NC(=O)[C@H](CC(C)C)NC(=O)[C@](C)(CC(C)C)NC(=O)[C@@H](NC(=O)[C@H](CO)NC(=O)[C@H](Cc1ccc(O)cc1)NC(=O)[C@H](CC(=O)O)NC(=O)[C@H](CO)NC(=O)[C@@H](NC(=O)[C@](C)(Cc1ccccc1F)NC(=O)[C@@H](NC(=O)CNC(=O)[C@H](CCC(N)=O)NC(=O)C(C)(C)NC(=O)[C@@H](N)Cc1ccc(O)cc1)[C@@H](C)O)[C@@H](C)O)[C@@H](C)CC)C(=O)N[C@@H](CCC(=O)O)C(=O)N[C@@H](Cc1ccc(O)cc1)C(=O)N[C@@H](CC(C)C)C(=O)N[C@@H](CC(C)C)C(=O)N[C@@H](CCC(=O)O)C(=O)N[C@H](C(=O)NCC(=O)N1CCC[C@H]1C(=O)N[C@@H](CO)C(=O)N[C@@H](CO)C(=O)NCC(=O)N[C@@H](CCC(N)=O)C(=O)N1CCC[C@H]1C(=O)N1CCC[C@H]1C(=O)N1CCC[C@H]1C(=O)N[C@@H](CO)C(N)=O)[C@@H](C)O [Compound 23]	0.005	880.00	0.134	770.15	2.45	155.12	1.24	314.30	0.007	2585.71	0.025	228.00

— patent publication US20250129135A1, “Multi-Agonist and Use Thereof” (priority 2021, published 2025)
